{"sequences": {"note": "Amino acid sequences for entries named in this document (tags omitted).", "UniProt O96028, whole entry": "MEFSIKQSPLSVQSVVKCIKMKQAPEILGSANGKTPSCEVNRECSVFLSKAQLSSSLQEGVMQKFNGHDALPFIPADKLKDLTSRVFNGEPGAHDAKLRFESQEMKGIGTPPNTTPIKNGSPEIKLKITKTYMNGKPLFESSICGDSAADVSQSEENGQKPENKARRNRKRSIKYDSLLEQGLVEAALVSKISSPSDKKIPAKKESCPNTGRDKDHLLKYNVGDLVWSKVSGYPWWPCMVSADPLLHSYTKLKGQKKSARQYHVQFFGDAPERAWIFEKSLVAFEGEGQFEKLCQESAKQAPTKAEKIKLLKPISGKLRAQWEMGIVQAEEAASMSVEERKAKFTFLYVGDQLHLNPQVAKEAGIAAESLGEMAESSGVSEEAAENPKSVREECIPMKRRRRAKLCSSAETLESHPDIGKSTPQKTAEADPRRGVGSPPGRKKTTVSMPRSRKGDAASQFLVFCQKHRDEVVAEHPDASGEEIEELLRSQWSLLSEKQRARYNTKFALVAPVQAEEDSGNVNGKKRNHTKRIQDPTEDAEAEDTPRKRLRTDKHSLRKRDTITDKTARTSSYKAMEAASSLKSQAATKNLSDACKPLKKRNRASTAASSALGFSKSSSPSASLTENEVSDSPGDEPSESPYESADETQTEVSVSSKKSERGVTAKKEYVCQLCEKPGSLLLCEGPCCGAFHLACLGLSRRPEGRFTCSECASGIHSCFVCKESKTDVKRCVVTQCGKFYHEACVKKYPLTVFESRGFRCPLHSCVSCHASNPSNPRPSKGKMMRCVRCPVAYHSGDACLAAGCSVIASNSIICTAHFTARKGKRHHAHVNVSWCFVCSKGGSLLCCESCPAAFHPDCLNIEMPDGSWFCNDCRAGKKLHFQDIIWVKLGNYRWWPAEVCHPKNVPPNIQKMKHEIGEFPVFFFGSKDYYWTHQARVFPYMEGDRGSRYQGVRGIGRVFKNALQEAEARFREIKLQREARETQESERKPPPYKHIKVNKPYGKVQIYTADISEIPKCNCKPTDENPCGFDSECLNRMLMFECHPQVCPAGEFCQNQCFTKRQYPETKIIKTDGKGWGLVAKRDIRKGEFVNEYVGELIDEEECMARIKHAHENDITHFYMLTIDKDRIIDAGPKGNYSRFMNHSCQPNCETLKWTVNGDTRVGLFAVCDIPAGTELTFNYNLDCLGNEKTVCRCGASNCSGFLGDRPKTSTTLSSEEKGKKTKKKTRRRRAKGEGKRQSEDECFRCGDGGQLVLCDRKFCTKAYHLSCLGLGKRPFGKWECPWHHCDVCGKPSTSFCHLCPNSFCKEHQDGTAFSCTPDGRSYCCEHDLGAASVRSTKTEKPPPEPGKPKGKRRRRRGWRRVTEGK"}, "source": "PubChem BioAssay AID624260", "about": "(Broad Institute, 2012)", "note": "The list shows a part of the results, in another mix than the full data. Some salts or complexes appear as unconnected parts, following the source record. The source made the active and inactive calls. Rule as the data show it: active = inhibition above about 54% (passing the limit was not always enough); inconclusive = no clear call, values can overlap the other calls."}
{"biological_target": "Histone-lysine N-methyltransferase NSD2 (Homo sapiens) (UniProt O96028)", "test": "inhibitors of human NSD2, primary screen, biochemical, plate reader, single point (AID 624260);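 also: inhibitors reduce the monomethyl H3K36 fluorescence signal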", "details": "NSD2-SET H3K36me1 DELFIA fluorescence, at 12.5 µM, hits give high values"}
{"smiles": "C/C1=C2N=C(/C=C3N=C(/C(C)=C4\\[N-][C@@](C)([C@@H]5N=C1[C@](C)(CCC(=O)NCC(C)OP(=O)(O)O[C@@H]1[C@H](O)[C@H](n6cnc7cc(C)c(C)cc76)O[C@H]1CO)[C@H]5CC(N)=O)[C@@](C)(CC(N)=O)[C@@H]4CCC(N)=O)[C@@](C)(CC(N)=O)[C@@H]\\3CCC(N)=O)C(C)(C)[C@@H]/2CCC(N)=O.[C-]#N.[Co+3]", "note": "(stereo partly specified)", "inhibition": "inactive: -1.77%"}
